Values of other authors as cited in patent publication US5721213A, “Peptides, active as inhibitors of platelet aggregation” (Nippon Steel Corporation, priority 1993, dated 1998).

Settings: added to platelet fractions, plasma enzymes; cited from earlier work

arginine-glycine-aspartic acid-phenylalanine [RGDF]
stability in platelet fractions: broken down by the action of enzymes present in plasma
